This is an account of results in patent US9493451B2 (Bionomics Limited, priority 2011, dated 2016).

Chains of the proteins cited; added tags and fusions are not shown.
UniProt P22001, whole entry: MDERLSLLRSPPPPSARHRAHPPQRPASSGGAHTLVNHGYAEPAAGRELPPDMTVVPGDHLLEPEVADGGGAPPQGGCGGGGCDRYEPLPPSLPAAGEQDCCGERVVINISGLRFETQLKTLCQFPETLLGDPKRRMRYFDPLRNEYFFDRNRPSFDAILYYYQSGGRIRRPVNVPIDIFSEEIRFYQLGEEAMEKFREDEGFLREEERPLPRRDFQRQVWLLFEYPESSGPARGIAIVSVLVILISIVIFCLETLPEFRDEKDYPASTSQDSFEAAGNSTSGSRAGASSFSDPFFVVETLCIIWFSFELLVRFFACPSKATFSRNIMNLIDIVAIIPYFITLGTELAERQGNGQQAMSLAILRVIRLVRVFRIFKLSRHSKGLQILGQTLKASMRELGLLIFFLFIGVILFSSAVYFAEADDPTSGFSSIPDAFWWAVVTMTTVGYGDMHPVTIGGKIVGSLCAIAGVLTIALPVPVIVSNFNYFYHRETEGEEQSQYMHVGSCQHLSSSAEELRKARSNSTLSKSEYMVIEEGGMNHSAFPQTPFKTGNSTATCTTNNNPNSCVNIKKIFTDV

This test addresses Kv1.3 (Homo sapiens, UniProt P22001). The test is described as follows: Electrophysiology: planar patch-clamp of Kv1.3 currents, IC50 from steady state current amplitude. Conditions: read-out: IC50 (Kv1.3 ephys steady state), Kv1.3 electrophysiology, results according to Method D1. Here is the method:
The inhibition data shown for the compounds of the list below was calculated using the steady state current amplitude at the end of the depolarising pulse in patch clamp evaluations (as described in the Biology Protocols: 1. Electrophysiology).
Kv1.x currents were measured in Kv1.3/CHO or Kv1.5/CHO cells using a planar electrode version (Nanion Technologies GMBH) of the patch-clamp technique. Whole-cell Kv1.x current transients were evoked by 500 ms depolarising voltage pulses to +40 mV from a holding potential of −80 mV applied at 10 s intervals for Kv1.5 and at 30 s intervals for Kv1.3 to allow adequate time for recovery from inactivation. Cells were continuously bathed in a buffered saline solution containing (mM): 160 NaCl, 4.5 KCl, 2 CaCl2, 1 MgCl2, 5 glucose, 10 HEPES, pH 7.4, 290-310 mOsm·Kg^−1. The internal (pipette) solution contained (mM): 10 NaCl, 70 KF, 75 KCl, 2 MgCl2, 10 HEPES, 10 EGTA, pH 7.2, 290-310 mOsm·Kg^−1. Series resistance compensation (60-80%) was applied to cells in which the peak current amplitude exceeded 2 nA.
Compound Preparation and Potency Assessment
Compounds were initially dissolved in DMSO to 10 mM. […] Compound IC50 values were determined by fitting the average normalised reduction of either the current integral or the steady state current amplitude at the end of the 500 ms depolarising pulse obtained at each compound concentration to the Hill equation. […]
A general note: The patch-clamp technique gives a direct electrical read-out from membranes.

In general, IC50 refers to the point on the concentration scale where inhibition reaches its midpoint.

Consider `CC(C)Cc1noc(C(C)N(Cc2ccc(C(F)(F)F)nc2)C(=O)[C@@H]2C[C@H]2c2ccc(F)cc2)n1` (single isomer, unassigned), for which the IC50 lay in the range of 50 to 200 nM.
